Assays:
[1] = MSCR test, percentage elastic recovery; format: physicochemical; settings: bitumen 20/30 + 5% compound
[2] = Softening point ring & ball of rejuvenated bitumen; settings: bitumen 20/30 rejuvenated with 5% of the compound, 180° C., 30 minutes

- MSCR % Rec. (0.1 kPa) ([1]; 0.1 kPa): 10%
- MSCR % Rec. (1.6 kPa) ([1]; 1.6 kPa): 4%
- MSCR % Rec. (3.2 kPa) ([1]; 3.2 kPa): 2%
- SP [° C.] (softening point) [2]: 51.0 °C
Substance: Dodecenyl succinic acid anhydride
